# This is a selection; strong and weak results do not stand in their true shares. Results filed as inconclusive are left out. Active and inactive are the calls of the source. Calls follow the shape of the dose curve; as a rule, active = well fitted inhibition curve with a large enough effect; inconclusive = small, poorly fitted or top-dose-only effect, or another doubt; inactive = no such curve, though single readings can be large or run the other way.
# By UniProt entry, the sequences of proteins in these tests, tags left out. Where a name states a change or a piece, a line headed by the entry shows the natural chain unless it says otherwise.
# UniProt Q9UBT6: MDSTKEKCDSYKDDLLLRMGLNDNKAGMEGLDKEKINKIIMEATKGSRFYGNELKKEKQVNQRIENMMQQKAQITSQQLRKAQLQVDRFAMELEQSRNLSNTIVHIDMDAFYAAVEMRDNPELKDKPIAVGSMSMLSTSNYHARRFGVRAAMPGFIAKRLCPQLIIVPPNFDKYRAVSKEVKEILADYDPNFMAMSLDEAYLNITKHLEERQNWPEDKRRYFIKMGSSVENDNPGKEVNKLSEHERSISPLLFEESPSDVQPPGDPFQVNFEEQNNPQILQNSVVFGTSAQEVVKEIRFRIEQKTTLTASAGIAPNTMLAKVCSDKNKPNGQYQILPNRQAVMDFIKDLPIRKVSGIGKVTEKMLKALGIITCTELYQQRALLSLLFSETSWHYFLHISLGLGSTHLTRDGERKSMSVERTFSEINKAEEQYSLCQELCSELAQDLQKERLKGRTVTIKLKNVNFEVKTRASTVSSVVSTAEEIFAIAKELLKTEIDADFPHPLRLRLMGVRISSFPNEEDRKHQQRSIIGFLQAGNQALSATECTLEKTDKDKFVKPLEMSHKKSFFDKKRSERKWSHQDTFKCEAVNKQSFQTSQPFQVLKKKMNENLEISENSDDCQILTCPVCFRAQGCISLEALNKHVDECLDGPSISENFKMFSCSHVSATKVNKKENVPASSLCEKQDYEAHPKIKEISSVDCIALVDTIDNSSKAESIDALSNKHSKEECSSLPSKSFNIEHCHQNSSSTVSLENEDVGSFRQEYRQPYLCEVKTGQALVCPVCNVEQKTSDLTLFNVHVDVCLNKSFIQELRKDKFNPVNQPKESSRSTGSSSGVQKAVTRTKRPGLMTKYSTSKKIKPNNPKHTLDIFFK
# Biological target: DNA polymerase kappa (Homo sapiens) (UniProt Q9UBT6)
# Test: qHTS for Inhibitors of Polymerase Kappa
# Details: purified Pol kappa, fluorescent DNA synthesis assay, 10 min
# Protocol: The processing and repair of DNA interstrand crosslinks (ICL) in eukaryotic cells are extremely complex, potentially involving multiple DNA repair and damage tolerance pathways, including homologous recombination, nucleotide excision repair, translesion synthesis (TLS), and cell cycle checkpoints.
# To that end, in a collaboration between the Oregon Health & Science University and the NIH Chemical Genomics Center a 1536-well high-throughput screen was developed. This fluorescent screen was assayed against the NIH Molecular Libraries Small Molecule Repository (MLSMR) to discover inhibitors of Pol Kappa.
# NIH Chemical Genomics Center [NCGC]
# NIH Molecular Libraries Probe Centers Network [MLPCN]
# Assay Submitter (PI): Stephen Lloyd, Oregon Health & Science University
# Three microliters of reagents (buffer in column 3 and 4 as negative control and 10 nM Pol kappa in columns 1, 2, and 5-48) were dispensed into a 1536-well black solid-bottom plate. Compounds (23 nL) were transferred via Kalypsys pin tool equipped with 1536-pin array. The plates were then incubated for 15 min at room temperature, and 1 uL substrate (50 nM final concentration) were then added to start the reaction and kinetically read twice at 0 min and 10 min on the Viewlux reader
# % is scaled to controls: 0 for no effect and ±100 for the full control effect.
structure (smiles),measurement,setting,value
Cc1ccc(OP(=O)(Nc2nccs2)Oc2ccc(C)cc2)cc1,"activity, negative = inhibition",at 107 µM (top of the series),inactive: -5.92%
COc1ccccc1OP(=O)(Nc1ccc(C)cn1)Oc1ccccc1OC,"activity, negative = inhibition",at 107 µM (top of the series),inactive: -0.146%
O=C(NC(Sc1ccncn1)C(Cl)(Cl)Cl)c1ccccc1 (centres undefined),"activity, negative = inhibition",at 107 µM (top of the series),inactive: -16.9%
Oc1ccccc1CNc1ccccn1,"activity, negative = inhibition",at 107 µM (top of the series),inactive: -10.8%
CC(C)CC(=O)NC(Sc1ccc(Cl)cc1)C(Cl)(Cl)Cl (centres undefined),"activity, negative = inhibition",at 107 µM (top of the series),inactive: -6.76%
COc1ccc(C2=NCC(CBr)S2)cc1 (centres undefined),"activity, negative = inhibition",at 107 µM (top of the series),inactive: -2.07%
Cc1ccc(NP(=O)(Oc2ccccc2)Oc2ccccc2)nc1,"activity, negative = inhibition",at 107 µM (top of the series),inactive: 8.13%
CC(=O)N1C2C3N(C(C)=O)C1C1N(C(C)=O)C(C(N1C(C)=O)N3C(C)=O)N2C(C)=O,"activity, negative = inhibition",at 107 µM (top of the series),inactive: -3.84%
O=[N+]([O-])c1cccc2n[nH]nc12,"activity, negative = inhibition",at 107 µM (top of the series),inactive: -10.1%
CCN(/C(=N/P(=O)(N1CCOCC1)N1CCOCC1)N1CCOCC1)c1ccc(OC)cc1,"activity, negative = inhibition",at 107 µM (top of the series),inactive: -2.9%
Nc1ccc([As](=O)(O)c2ccc(N)cc2)cc1,"activity, negative = inhibition",at 107 µM (top of the series),inactive: -1.96%
CC1CCN(C(=O)Oc2c(Cl)cc(Cl)c3cccnc23)CC1,"activity, negative = inhibition",at 107 µM (top of the series),inactive: -18.9%
CC(=O)C1=CCCC2CCC1N2 (centres undefined),"activity, negative = inhibition",at 19.4 µM (top of the series),inactive: 4.49%
same,"activity, negative = inhibition",at 60.1 µM (top of the series),inactive: -12.1%
CN(C)C(=O)OCCc1n(C)cc[n+]1C,"activity, negative = inhibition",at 107 µM (top of the series),inactive: -2.47%
COc1cc([N+](=O)[O-])c([N+](=O)[O-])cc1OC,"activity, negative = inhibition",at 107 µM (top of the series),inactive: 13%
O=P1(N(CCCl)CCCl)OCCCS1 (centres undefined),"activity, negative = inhibition",at 107 µM (top of the series),inactive: -17%
Cc1cc(C=O)ccc1N(CCCl)CCCl,"activity, negative = inhibition",at 107 µM (top of the series),inactive: -23%
O=C(Nc1cc([As](=O)(O)O)ccc1O)c1ccccc1,"activity, negative = inhibition",at 107 µM (top of the series),inactive: -8.32%
O=P(/N=c1/nc(-c2ccccc2)n(-c2ccccc2)s1)(Nc1ccccc1)Nc1ccccc1,"activity, negative = inhibition",at 107 µM (top of the series),inactive: -10.4%
CC(C)(C)C(=O)NC(Sc1ccncn1)C(Cl)(Cl)Cl (centres undefined),"activity, negative = inhibition",at 107 µM (top of the series),inactive: 12.2%
O=C(O)CNc1ccc([As](=O)(O)O)cc1,"activity, negative = inhibition",at 107 µM (top of the series),inactive: -6.23%
O=[N+]([O-])c1cccc(NC2=NCC(CBr)S2)c1 (centres undefined),"activity, negative = inhibition",at 107 µM (top of the series),inactive: 4.19%
COC(=O)C1(C)COP(=O)(Nc2ccccc2)OC1 (centres undefined),"activity, negative = inhibition",at 107 µM (top of the series),inactive: -9.69%
CN(C)C1(CNC(=O)c2ccc(Cl)c(S(N)(=O)=O)c2)CCCCC1,"activity, negative = inhibition",at 107 µM (top of the series),inactive: -3.99%
O=P(Nc1ccccn1)(c1ccc(Br)cc1)c1ccc(Br)cc1,"activity, negative = inhibition",at 107 µM (top of the series),inactive: 2.86%
CN(C(=O)Cc1ccccc1)[C@H]1CC[C@@]2(CCCO2)C[C@@H]1N1CCCC1,"activity, negative = inhibition",at 19.4 µM (top of the series),inactive: 3.15%
C[C@H]1OP(=O)(Oc2ccccc2)[C@H](O)[C@H](O)[C@H]1N=[N+]=[N-] (some centres undefined),"activity, negative = inhibition",at 107 µM (top of the series),inactive: 13.5%
O=P(Nc1nc2ccccc2s1)(c1ccccc1)c1ccccc1,"activity, negative = inhibition",at 107 µM (top of the series),inactive: -14.4%
O=[As](O)(c1ccccc1)c1ccc(O)cc1,"activity, negative = inhibition",at 107 µM (top of the series),inactive: -3.29%
CC(=O)NC(SC(=S)N(C)C)C(Cl)(Cl)Cl (centres undefined),"activity, negative = inhibition",at 107 µM (top of the series),inactive: -11.9%
O=[N+]([O-])c1ccc(O)c(/C=N/Nc2ccc([N+](=O)[O-])cc2[N+](=O)[O-])c1,"activity, negative = inhibition",at 107 µM (top of the series),inactive: -12.8%
O=C(OC1CN2CCC1CC2)c1cccc(Cl)c1 (centres undefined),"activity, negative = inhibition",at 107 µM (top of the series),inactive: -6.85%
Nc1ccc([As](=O)(O)c2ccc([N+](=O)[O-])cc2)cc1,"activity, negative = inhibition",at 107 µM (top of the series),inactive: -7.94%
O=P(Nc1nccs1)(c1ccccc1)c1ccccc1,"activity, negative = inhibition",at 107 µM (top of the series),inactive: -3.3%
CC(C)C(=O)NC(Sc1ccccc1)C(Cl)(Cl)Cl (centres undefined),"activity, negative = inhibition",at 107 µM (top of the series),inactive: -1.98%
CCC(C)(OOC(C)(C)C)OOC(C)(C)C,"activity, negative = inhibition",at 60.1 µM (top of the series),inactive: 16.9%
COc1cccc([N+](=O)[O-])c1[N+](=O)[O-],"activity, negative = inhibition",at 107 µM (top of the series),inactive: -17%
CCOc1ccc(C2=NCC(CBr)S2)cc1 (centres undefined),"activity, negative = inhibition",at 107 µM (top of the series),inactive: -22.4%
O=P1(Nc2nc3ccc(Cl)cc3s2)COc2ccccc2O1 (centres undefined),"activity, negative = inhibition",at 107 µM (top of the series),inactive: -3.72%
CC(C)(C)C(=O)NC(Sc1ccccc1)C(Cl)(Cl)Cl (centres undefined),"activity, negative = inhibition",at 107 µM (top of the series),inactive: -7.18%
CCc1cc(O)c([N+](=O)[O-])c(C)c1[N+](=O)[O-],"activity, negative = inhibition",at 107 µM (top of the series),inactive: -13.8%
C[C@@H]1C=CCP(=O)(Oc2ccccc2)O1 (some centres undefined),"activity, negative = inhibition",at 107 µM (top of the series),inactive: -15.5%
C[C@H]1OP(=O)(Oc2ccccc2)C[C@@H]2O[C@@H]21 (some centres undefined),"activity, negative = inhibition",at 107 µM (top of the series),inactive: -21.5%
Cc1ccccc1CN(C)C(=O)COC(=O)C(O)(c1ccccc1)c1ccccc1,"activity, negative = inhibition",at 107 µM (top of the series),inactive: -21.9%
COC(=O)C1(C)COP(=O)(NCc2ccccc2)OC1 (centres undefined),"activity, negative = inhibition",at 107 µM (top of the series),inactive: -10.2%
N#C/C(=C\c1ccc(N(CCBr)CCBr)cc1)C(N)=O,"activity, negative = inhibition",at 107 µM (top of the series),inactive: -8.23%
CC(=O)c1ccc(N2CC2c2ccncc2)cc1 (centres undefined),"activity, negative = inhibition",at 107 µM (top of the series),inactive: 3.12%
CC(=O)Nc1ccc(Oc2c([N+](=O)[O-])cc([N+](=O)[O-])cc2[N+](=O)[O-])cc1,"activity, negative = inhibition",at 107 µM (top of the series),inactive: 3.31%
CC(=O)Nc1ccc([As](=O)(O)O)c(O)c1,"activity, negative = inhibition",at 107 µM (top of the series),inactive: -8.41%
Cc1ccc(NP(=O)(Oc2cccc(C)c2)Oc2cccc(C)c2)nc1,"activity, negative = inhibition",at 107 µM (top of the series),inactive: 2.39%
c1ccc(-c2nn[nH]n2)c(-c2nn[nH]n2)c1,"activity, negative = inhibition",at 107 µM (top of the series),inactive: -10.8%
O=C(NC1CCS(=O)(=O)C1)NP(=S)(Oc1ccccc1)Oc1ccccc1 (centres undefined),"activity, negative = inhibition",at 107 µM (top of the series),inactive: -8.14%
O=P1(N(CCCl)CCCl)OCCC2CCCCN21 (centres undefined),"activity, negative = inhibition",at 107 µM (top of the series),inactive: -0.571%
CCC(=O)N1C2C3N(C(=O)CC)C1C1N(C(=O)CC)C(C(N1C(=O)CC)N3C(=O)CC)N2C(=O)CC,"activity, negative = inhibition",at 107 µM (top of the series),inactive: 6.45%
O=C(OC1CN2CCC1CC2)c1ccccc1 (centres undefined),"activity, negative = inhibition",at 19.4 µM (top of the series),inactive: 7.72%
same,"activity, negative = inhibition",at 107 µM (top of the series),inactive: -4.55%
CN(C(=O)Cc1ccc(Cl)c(Cl)c1)[C@@H]1CCCC[C@@H]1N1CCCC1,"activity, negative = inhibition",at 60.1 µM (top of the series),inactive: -15%
Cc1ccc(OP(=O)(Nc2ccccn2)Oc2ccc(C)cc2)cc1,"activity, negative = inhibition",at 107 µM (top of the series),inactive: -7.89%
CC(=O)NC(SC(=S)N(CC(C)C)CC(C)C)C(Cl)(Cl)Cl (centres undefined),"activity, negative = inhibition",at 107 µM (top of the series),inactive: -8.64%
COC(=O)c1cc2c(s1)N=C(c1ccccc1)N(C)P2(=O)N1CCOCC1 (centres undefined),"activity, negative = inhibition",at 107 µM (top of the series),inactive: 0.477%
CN(C)C(=O)Oc1noc2ccccc12,"activity, negative = inhibition",at 107 µM (top of the series),inactive: -3.3%
Cc1ccccc1OP(=O)(Nc1ccccn1)Oc1ccccc1C,"activity, negative = inhibition",at 107 µM (top of the series),inactive: -2%
CC(NC(=O)COC(=O)C(O)(c1ccccc1)c1ccccc1)c1ccccc1 (centres undefined),"activity, negative = inhibition",at 107 µM (top of the series),inactive: -11.1%
